Assay results taken from PubChem BioAssay AID2252 (Southern Research Specialized Biocontainment Screening …, 2010).

These compounds were tested on THP-1 viability, CellTiter-Glo luminescence, 72 h (assay: PubChem AID 2252).

Compared with `O=C(Nc1cccnc1)c1ccc([N+](=O)[O-])o1`, `O=C(N/N=C/c1ccc([N+](=O)[O-])o1)C1CC1` is 3.5-fold higher in EC50: 8.83 µM for the first, 30.8 µM for the second.

Compared with `CC(C)(C)c1nnc(N/N=C/c2cc(Br)ccc2O)n(N)c1=O`, `O=C(NNC(=S)Nc1ccc(Cl)c(Cl)c1)c1ccccn1` is 5-fold higher in EC50: 0.38 µM for the first, 1.89 µM for the second.
